The conditions of data set [1]: patients with inflammatory bowel disease, azathioprine; cited from earlier work.
For data set [2] the following is noted: human, in vivo.

Take “6-methyl-mercaptopurine nucleotide [6-MMPN]”: the “Threshold associated with hepatotoxicity” value in data set [1] is given as greater than 5700 pmol/8×10^8 cells. Also, in data set [2], the “RBC level, TPMT heterozygous genotype” value came out at 808±144 pmol/8×10^8 RBCs and the “RBC level, TPMT homozygous wild type genotype” value is on record as 2679±107 pmol/8×10^8 RBCs.
With 6-thioguanine nucleotide [6-TGN], in data set [1], the “Threshold associated with leukopenia” value is reported as greater than 400 pmol/8×10^8 cells. Further, in data set [2], the “Average RBC level, TPMT homozygous mutant genotype” value is given as 2681±406 pmol/8×10^8 RBCs; the “RBC level, TPMT heterozygous genotype” value is on record as 408±23 pmol/8×10^8 RBCs; the “RBC level, TPMT homozygous wild type genotype” value amounted to 202±3 pmol/8×10^8 RBCs; the “RBC levels reached / detection, TPMT homozygous mutant genotype” value was “above 1000 pmol/8×10^8 RBCs”.
